Experimental data from ChEMBL document CHEMBL1134016, “Different antagonist binding properties of human and rat histamine H3 receptors” (Bioorg Med Chem Lett, 2001).

Protein sequences, listed by entry. Tags and fused reporters are not part of them. Lines headed by an entry give the natural chain unless they say otherwise; changes in a name come on top.
UniProt Q9Y5N1: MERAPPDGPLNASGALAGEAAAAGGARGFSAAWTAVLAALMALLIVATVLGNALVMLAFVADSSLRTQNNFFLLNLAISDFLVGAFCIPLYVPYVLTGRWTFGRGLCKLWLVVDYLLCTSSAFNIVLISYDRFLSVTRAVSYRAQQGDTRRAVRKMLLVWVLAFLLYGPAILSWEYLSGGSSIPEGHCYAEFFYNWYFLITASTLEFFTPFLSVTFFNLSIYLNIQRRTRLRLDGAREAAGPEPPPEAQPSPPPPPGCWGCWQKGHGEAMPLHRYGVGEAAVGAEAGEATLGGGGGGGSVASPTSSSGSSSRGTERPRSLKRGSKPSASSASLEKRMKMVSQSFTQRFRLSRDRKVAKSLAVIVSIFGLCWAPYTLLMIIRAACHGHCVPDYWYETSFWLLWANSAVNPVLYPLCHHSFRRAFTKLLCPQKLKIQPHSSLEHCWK

Molecular target: Histamine H3 receptor (Homo sapiens, UniProt Q9Y5N1)
Assay: biochemical
Format: cell-based, CHO-K1

SMILES | Ki [nM]
O=C(c1ccc(OCCCc2cnc[nH]2)cc1)C1CC1 [CIPROXIFAN] | 46
NC(=NCc1ccc(Cl)cc1)SCCCc1cnc[nH]1 [CLOBENPROPIT] | 2.4
